Only a part is listed here, and it is no random draw. Calls of active or inactive are those of the source.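 How the source made its calls: active means choline transporter activity left, mean of duplicates at 10 µM, below buffer-only control mean minus 3 SD; inactive means the rest.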
target: High affinity choline transporter 1 (Homo sapiens) (UniProt Q9GZV3); test: CHT inhibitors, confirmation, cell-based, membrane potential dye, duplicate (AID 493221); conditions: CHT-expressing cells, at 10 µM, LV-to-AA substituted CHT, HEK293 cells

Amino acid sequences for entries named in this document (tags omitted). A change or cut given only in a name is not applied to a line headed by its entry.
UniProt Q9GZV3, whole entry, stated change not applied: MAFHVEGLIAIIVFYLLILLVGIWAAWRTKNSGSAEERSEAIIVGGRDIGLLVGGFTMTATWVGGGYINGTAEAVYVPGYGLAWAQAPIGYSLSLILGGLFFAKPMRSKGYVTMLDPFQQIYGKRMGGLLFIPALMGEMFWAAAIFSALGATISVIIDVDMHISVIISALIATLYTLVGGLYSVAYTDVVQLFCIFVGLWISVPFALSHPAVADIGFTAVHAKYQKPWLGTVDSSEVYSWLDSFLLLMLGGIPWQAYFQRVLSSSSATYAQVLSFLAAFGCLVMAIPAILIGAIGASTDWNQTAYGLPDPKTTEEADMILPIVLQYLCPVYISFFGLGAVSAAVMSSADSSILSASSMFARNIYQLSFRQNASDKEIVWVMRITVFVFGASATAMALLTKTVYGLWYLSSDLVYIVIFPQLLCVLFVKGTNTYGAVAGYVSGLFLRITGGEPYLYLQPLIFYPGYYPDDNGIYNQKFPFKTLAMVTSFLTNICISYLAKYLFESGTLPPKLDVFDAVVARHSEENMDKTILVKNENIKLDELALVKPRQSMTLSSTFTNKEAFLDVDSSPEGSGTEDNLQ

| SMILES | inhibition |
| --- | --- |
| CC1=NCCc2c1[nH]c1ccccc21.O=[N+]([O-])c1cc([N+](=O)[O-])c(O)c([N+](=O)[O-])c1 | active: 42.9% |
| O=[N+]([O-])c1cc([N+](=O)[O-])c(Nc2ccccn2)c([N+](=O)[O-])c1 | active: 68.7% |
